Consider 1 molecule from patent US11903952B2, “Vitamin D as an immune modulator to prevent immune-related complication from COVID-19 infection” (dated 2024).

For the experiment, the system named is Sulfur Mustard (SM) inhalation induced lung injury. To be noted: for survival / mean Pulmonary Artery Pressures (mPAP) / weight gain: at 25 days; for lung histology (airway epithelial layer, wall thickening, inflammation, luminal exudate): 25 days after SM exposure.

SMILES strings stand for the structures. Like-named read-outs stand apart in the source and are kept apart here.

With `C=C1CC[C@H](O)C/C1=C/C=C1\CCC[C@]2(C)[C@@H]([C@H](C)CCCC(C)C)CC[C@@H]12`, the “weight gain, course over time” value reads like this: (1-dose regimen) “initial improvement in weight gain over the first 8 days, similar to 4-dose and 3-dose treatment groups, but benefit was lost between 9-25 days”; (3-dose regimen) “initial improvement in weight gain over the first 12 days was seen, similar to 4-dose treatment group, but then this benefit was lost between 13-25 days”. Further, the survival came out at 63% (1-dose regimen (4 hrs post exposure), 20,000 IU/kg PO); 85% (3-dose regimen (4 hrs, then 3, 7 days post exposure), 20,000 IU/kg PO); 83% (3-dose regimen (4 hrs, then 3, 7 days post exposure), 20,000 IU/kg PO, listed as Vit D3); 100% (4-dose regimen (4 hrs, then 7, 14, 21 days post exposure), 20,000 IU/kg PO). The “lung histology (airway epithelial layer, wall thickening, inflammation, luminal exudate)” value is “no improvement in airway wall over control, with a complete absence of airway epithelium, severe wall thickening and inflammation, as well as severe inflammatory exudate impaction of airways” (1-dose regimen); “some discontinuous airway epithelial layer presence in both proximal and distal airways, with moderate inflammation and moderate exudate present within the lumen” (3-dose regimen); “improvement in airway epithelial layer presence, with continuous layer seen in both proximal and distal airways, with minimal inflammation and exudate presence within the lumen” (4-dose regimen, Masson Trichrome). The “mean Pulmonary Artery Pressures (mPAP)” value reads like this: (1-dose regimen) 20.0 mmHg; (3-dose regimen) 20.9 mmHg; (4-dose regimen) 18.3 mmHg. In addition, the airways resistance result (1-dose regimen, vs SM controls) is listed as “no improvement”. Besides, the compliance result (1-dose regimen, vs SM controls) is recorded as “no improvement”. In addition, the weight gain runs as follows: (3-dose regimen) 2%; (4-dose regimen) 21%. Moreover, the total airways resistance result was “trending towards a decrease” (3-dose regimen, vs SM controls) and “trending towards a decrease” (4-dose regimen, vs SM controls). Moreover, the total compliance result runs as follows: (3-dose regimen, vs SM controls) “unchanged from SM controls”; (4-dose regimen, vs SM controls) “unchanged from SM controls”. Besides, the “lung histology (airway epithelial barrier, wall thickness, luminal inflammatory exudates)” value (repeated oral dosing regimen after lung injury) is “improved the airway epithelial barrier and wall thickness, and greatly decreased luminal inflammatory exudates”.
